Results: US20230322930A1, “USE OF AN ANTI-PD-1 ANTIBODY AND A CYTOTOXIC ANTICANCER DRUG IN TREATMENT OF NON-SMALL CELL LUNG CANCER” (SHANGHAI JUNSHI BIOSCIENCES CO., LTD., priority 2020, published 2023)

Test system: advanced or recurrent NSCLC with EGFR-sensitive mutations after failure of EGFR-TKI treatment
Assay: Phase II clinical trial, antitumor activity study (RECIST v1.1 / irRECIST)
Settings: with pemetrexed + carboplatin

In the case of “toripalimab: anti-PD-1 humanized IgG4 mAb with light and heavy chains of SEQ ID NOs: 9 and 10; described in WO 2014206107”, the “ORR, 240 mg toripalimab group” value (240 mg Q3W, n=10) is reported as 50.0%, the “ORR, 360 mg toripalimab group” value (360 mg Q3W, n=30) is reported as 50.0% and the “ORR, patients with erlotinib as first-line EGFR TKI treatment” value (4 patients) is reported as 75.0%. The “ORR, patients with icotinib as first-line EGFR TKI treatment” value (16 patients) was 62.5%, the “ORR, patients with gefitinib as first-line EGFR TKI treatment” value (20 patients) was 35.0% and the “overall survival HR, L858R mutation vs exon 19 deletion” value (95% CI: 0.16-1.42, p=0.18) was 0.48.
